Columns and labels:
Androgen Receptor (AR) = Androgen Receptor (AR) (Homo sapiens, UniProt P10275, H875Y); test: CETSA HT ITDRF at 46 °C, antagonist mode in the presence of 1 nM DHT, CWR22Pc-R1-AD1 cells; assay type: binding; details: for Conclusion: activity in CETSA HT: Supplementary Table S1, 2 h, 46 °C; for IC50: read-out: AR target engagement (CETSA HT), 2 h, IC50, CWR22Pc-R1-AD1 cells, 1 nM DHT, 46 °C heat shock
total cellular AR = test: CETSA HT control without heat shock and without exogenous DHT (total AR); assay type: cell-based, human; details: 2 h compound incubation, no 46 °C heat shock

Amino acid sequences for entries named in this document (tags omitted).
UniProt P10275, whole entry H875Y: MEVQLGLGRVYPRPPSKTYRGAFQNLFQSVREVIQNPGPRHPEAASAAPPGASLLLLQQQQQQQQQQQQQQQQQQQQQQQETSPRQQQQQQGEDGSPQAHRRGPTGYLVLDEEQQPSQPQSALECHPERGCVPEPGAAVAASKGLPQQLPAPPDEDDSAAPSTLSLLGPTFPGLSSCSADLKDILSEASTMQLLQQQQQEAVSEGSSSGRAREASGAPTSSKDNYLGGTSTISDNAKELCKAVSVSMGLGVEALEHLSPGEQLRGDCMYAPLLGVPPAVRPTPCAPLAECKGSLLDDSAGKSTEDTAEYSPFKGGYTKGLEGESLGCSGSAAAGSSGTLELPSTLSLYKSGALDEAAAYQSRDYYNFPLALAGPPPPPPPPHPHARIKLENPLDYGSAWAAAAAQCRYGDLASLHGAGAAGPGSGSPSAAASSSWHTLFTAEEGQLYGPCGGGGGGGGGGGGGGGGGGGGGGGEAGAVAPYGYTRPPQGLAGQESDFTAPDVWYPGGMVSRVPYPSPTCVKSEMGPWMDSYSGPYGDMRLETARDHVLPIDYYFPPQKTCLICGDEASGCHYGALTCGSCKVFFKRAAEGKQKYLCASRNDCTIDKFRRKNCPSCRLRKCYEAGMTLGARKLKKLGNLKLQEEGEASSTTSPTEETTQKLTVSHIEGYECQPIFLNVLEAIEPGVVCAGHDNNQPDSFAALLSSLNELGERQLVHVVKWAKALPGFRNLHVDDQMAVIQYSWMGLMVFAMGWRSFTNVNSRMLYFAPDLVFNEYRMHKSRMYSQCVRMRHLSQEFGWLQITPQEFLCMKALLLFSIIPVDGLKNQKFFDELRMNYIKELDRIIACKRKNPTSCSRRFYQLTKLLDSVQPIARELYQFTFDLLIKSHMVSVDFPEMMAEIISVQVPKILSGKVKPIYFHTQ

| Structure (SMILES) | Conclusion: activity in CETSA HT (Androgen Receptor (AR)) | IC50 (Androgen Receptor (AR)) | effect on total AR (no heat shock) (total cellular AR) |
| --- | --- | --- | --- |
| N#Cc1cc2cc(CN3CCC(Nc4ncnc5sc(CC(F)(F)F)cc45)CC3)ccc2[nH]1 [MI-136] | Inactive | > 30 µM |  |
| Cc1c(CN2CCC(Nc3ncnc4sc(CC(F)(F)F)cc34)CC2)ccc2c1cc(C#N)n2Cc1cn[nH]c1 [MI-503] | Inactive | > 30 µM | do not reduce total AR |
| O=C(O)c1ccc(CN2CCC(CN[C@@H]3C[C@H]3c3ccccc3)CC2)cc1 [GSK2879522] | Inactive | > 30 µM |  |
| COc1ccc(C=CC(=O)CC(=O)C=Cc2ccc(OC)c(OC)c2)cc1OC | Inactive | > 30 µM | do not reduce total AR |
| CC[C@H](C)n1cc(C)c2c(C(=O)NCc3c(C)cc(C)[nH]c3=O)cc(-c3ccc(N4CCNCC4)nc3)cc21 [GSK-126] | Inactive | > 30 µM |  |
| Cc1sc2c(c1C)C(c1ccc(Cl)cc1)=N[C@@H](CC(=O)OC(C)(C)C)c1nnc(C)n1-2 [JQ1] | Inactive | > 30 µM | do not reduce total AR |

Reference: PMC5760633, “Determining direct binders of the Androgen Receptor using a high-throughput Cellular Thermal Shift Assay” (Scientific Reports, 2018)
